{"sequences": {"note": "Amino acid sequences for entries named in this document (tags omitted).", "UniProt Q13535, whole entry": "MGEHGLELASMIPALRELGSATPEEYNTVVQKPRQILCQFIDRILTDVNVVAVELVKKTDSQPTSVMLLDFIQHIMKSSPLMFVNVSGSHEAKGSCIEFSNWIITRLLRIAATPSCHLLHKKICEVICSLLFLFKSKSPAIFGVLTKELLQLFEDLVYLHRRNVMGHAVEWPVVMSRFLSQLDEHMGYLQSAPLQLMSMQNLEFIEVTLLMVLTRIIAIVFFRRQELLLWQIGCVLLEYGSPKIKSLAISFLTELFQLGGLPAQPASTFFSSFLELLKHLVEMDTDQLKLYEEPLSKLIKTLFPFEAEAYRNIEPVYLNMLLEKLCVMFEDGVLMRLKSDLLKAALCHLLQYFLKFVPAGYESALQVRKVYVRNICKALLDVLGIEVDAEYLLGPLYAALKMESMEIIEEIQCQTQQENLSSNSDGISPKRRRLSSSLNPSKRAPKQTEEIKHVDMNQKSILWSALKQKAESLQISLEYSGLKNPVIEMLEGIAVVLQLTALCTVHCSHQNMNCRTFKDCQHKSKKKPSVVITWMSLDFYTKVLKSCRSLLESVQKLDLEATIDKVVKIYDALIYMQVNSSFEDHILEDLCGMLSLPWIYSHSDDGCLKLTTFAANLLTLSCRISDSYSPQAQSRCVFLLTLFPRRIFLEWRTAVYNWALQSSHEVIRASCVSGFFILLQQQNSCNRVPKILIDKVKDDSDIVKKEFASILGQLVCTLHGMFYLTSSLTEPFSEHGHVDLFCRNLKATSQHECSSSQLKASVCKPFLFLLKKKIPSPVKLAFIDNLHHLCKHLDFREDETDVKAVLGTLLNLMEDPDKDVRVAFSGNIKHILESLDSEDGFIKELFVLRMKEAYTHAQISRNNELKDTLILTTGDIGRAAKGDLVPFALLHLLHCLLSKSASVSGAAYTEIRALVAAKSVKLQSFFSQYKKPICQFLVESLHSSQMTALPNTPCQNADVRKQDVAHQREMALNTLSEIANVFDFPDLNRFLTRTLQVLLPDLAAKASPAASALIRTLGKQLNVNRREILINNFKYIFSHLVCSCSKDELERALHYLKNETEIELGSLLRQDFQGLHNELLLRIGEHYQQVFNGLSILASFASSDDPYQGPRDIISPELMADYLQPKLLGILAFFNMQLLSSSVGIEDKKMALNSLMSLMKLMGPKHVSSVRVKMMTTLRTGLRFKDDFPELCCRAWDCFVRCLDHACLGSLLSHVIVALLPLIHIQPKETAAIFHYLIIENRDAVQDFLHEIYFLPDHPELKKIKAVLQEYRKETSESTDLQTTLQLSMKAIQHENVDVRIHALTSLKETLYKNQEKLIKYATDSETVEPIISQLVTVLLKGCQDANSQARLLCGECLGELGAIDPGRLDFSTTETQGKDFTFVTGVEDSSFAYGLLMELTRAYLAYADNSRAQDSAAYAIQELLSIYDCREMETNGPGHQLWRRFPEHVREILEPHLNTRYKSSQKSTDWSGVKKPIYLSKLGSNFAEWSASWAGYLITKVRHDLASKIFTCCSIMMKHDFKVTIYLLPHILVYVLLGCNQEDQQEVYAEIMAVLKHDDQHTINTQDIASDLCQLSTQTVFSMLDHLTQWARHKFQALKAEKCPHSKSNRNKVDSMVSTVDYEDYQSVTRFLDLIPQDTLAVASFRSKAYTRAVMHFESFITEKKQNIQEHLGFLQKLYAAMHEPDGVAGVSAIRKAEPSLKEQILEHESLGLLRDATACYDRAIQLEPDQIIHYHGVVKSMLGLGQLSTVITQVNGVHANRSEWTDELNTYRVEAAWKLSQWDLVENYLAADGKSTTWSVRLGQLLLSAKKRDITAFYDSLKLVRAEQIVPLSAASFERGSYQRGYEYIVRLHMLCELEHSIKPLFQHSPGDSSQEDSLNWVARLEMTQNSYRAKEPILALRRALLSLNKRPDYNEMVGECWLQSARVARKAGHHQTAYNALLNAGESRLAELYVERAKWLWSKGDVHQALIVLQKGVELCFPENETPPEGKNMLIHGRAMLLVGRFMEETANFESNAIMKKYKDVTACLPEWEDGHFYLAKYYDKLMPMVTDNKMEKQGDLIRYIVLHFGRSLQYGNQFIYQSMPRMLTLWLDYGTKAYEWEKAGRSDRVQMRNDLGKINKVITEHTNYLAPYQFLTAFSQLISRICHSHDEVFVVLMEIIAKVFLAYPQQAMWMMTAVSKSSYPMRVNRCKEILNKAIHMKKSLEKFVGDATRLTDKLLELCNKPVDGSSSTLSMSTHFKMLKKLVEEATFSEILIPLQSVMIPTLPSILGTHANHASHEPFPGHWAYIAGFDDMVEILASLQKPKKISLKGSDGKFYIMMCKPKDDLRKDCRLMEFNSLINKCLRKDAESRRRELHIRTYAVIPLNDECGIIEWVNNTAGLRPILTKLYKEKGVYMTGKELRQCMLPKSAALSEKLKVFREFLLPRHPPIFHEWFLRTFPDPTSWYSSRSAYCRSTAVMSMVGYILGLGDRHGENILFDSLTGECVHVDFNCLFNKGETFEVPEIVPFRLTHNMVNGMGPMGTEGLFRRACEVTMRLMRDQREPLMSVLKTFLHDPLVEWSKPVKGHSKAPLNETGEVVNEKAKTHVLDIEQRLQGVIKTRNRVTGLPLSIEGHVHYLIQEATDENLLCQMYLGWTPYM", "UniProt Q8WXE1, whole entry partner": "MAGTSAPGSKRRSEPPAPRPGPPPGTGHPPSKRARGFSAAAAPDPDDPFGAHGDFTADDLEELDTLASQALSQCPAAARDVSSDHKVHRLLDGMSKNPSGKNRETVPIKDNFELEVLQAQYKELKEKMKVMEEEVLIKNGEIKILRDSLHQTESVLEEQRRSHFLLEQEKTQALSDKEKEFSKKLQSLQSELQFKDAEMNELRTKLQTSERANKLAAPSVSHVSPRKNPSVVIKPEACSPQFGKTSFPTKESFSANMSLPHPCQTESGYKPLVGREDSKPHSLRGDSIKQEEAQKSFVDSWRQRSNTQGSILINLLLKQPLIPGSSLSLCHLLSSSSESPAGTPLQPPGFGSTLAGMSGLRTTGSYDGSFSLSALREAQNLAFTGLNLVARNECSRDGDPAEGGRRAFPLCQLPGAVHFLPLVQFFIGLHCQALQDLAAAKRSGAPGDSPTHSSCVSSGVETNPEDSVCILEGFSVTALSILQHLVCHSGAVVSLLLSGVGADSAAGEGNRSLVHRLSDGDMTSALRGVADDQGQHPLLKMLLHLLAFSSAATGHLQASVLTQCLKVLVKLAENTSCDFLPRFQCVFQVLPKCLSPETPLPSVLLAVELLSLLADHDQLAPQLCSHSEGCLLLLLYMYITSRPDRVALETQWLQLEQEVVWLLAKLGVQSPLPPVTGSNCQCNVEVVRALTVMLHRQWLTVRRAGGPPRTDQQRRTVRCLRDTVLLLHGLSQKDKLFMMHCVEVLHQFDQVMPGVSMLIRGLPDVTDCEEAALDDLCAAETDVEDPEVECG"}, "source": "patent US20250026750A1", "about": "“SULFOXIMINE-CONTAINING ATR INHIBITOR COMPOUND” (Chia Tai Tianqing Pharmaceutical Group Co., Ltd., priority 2021, published 2025)", "key": {"ATR kinase": {"target": "ATR kinase (Homo sapiens (Human), UniProt Q13535)", "assay": "Screening for in vitro inhibitory activity against ATR kinase", "conditions": "read-out: IC50 (nM), inhibitory activity against ATR kinase; 10 μM ATP, 0.1 μM U Light-poly GT substrate", "procedure": "A 50 ng/μL ATR stock solution was diluted with a kinase buffer (50 mM HEPES, 10 mM MgCl2, 2 mM DTT, 1 mM EGTA, 0.01% Tween 20), and 6 μL of 1.67×, 0.0835 ng/μL working solution was added to each well (final concentration: 0.05 ng/μL). Different compounds dissolved in DMSO were added to wells using a nanoliter pipettor, such that the final concentrations of the compounds were 1000 nM-0.24 nM and the concentrations in positive wells were 100 nM-0.024 nM (4-fold gradient, 7 concentrations in total). Meanwhile, a blank control well (containing no enzyme) and a negative control well (containing enzyme, with the vehicle DMSO added) were set. After the enzyme had reacted with the compound or vehicle for 30 min, a 5×, 50 μM ATP (final concentration: 10 μM) prepared with the kinase buffer and a 5×, 0.5 μM substrate (final concentration: 0.1 μM, U Light-poly GT) were 1:1 mixed, and the mixture was added to wells at 4 μL/well. After the plate was sealed with a sealing film and the plate was incubated at room temperature for 2 h, 5 μL of 4×, 40 mM EDTA (final concentration: 10 mM) was added to each well. […] Plate reading was performed on a PE instrument (excitation: 320 or 340 nm; emission: 665 nm), and four-parameter fitting and IC50 calculations were performed. […]"}, "[1]": {"assay": "Pharmacokinetic evaluation of compounds in mice", "conditions": "ICR mice", "procedure": "ICR mice, weighing 18-22 g, were randomized into 4 groups of 9 after 3-5 days of acclimatization, and were administered intragastrically (IG) a test compound at a dose of 10 mg/kg and intravenously (IV) a test compound at a dose of 1 mg/kg.\nThe test animals (ICR mice) were fasted for 12 h before the administration and given food 4 h after the administration, and they were given ad libitum access to water before, during and after the experiment.\nOrbital blood samples of about 0.1 mL were collected at 15 min, 30 min, 1 h, 2 h, 3 h, 4 h, 6 h, 8 h, 10 h and 24 h after the intragastric administration. Orbital blood samples of about 0.1 mL were collected at 5 min, 10 min, 30 min, 1 h, 2 h, 4 h, 6 h, 8 h, 10 h and 24 h after the intravenous administration. The blood sample collection was performed at 3-4 time points for each mouse, 3 mice/per time point. The collected whole blood was placed in EDTA-K2-containing centrifuge tubes and stored at 4° C., and, within 1 h, was centrifuged at 4° C. at 4000 rpm for 10 min to separate plasma. All plasma samples were collected and immediately stored at −20° C. for testing. 30 μL of a plasma sample to be tested and a standard-curve sample were collected, and 300 μL of an acetonitrile solution containing an internal standard (20 ng/mL diazepam) was added and well mixed by 5 min of shaking. The mixture was centrifuged at 13,000 rpm for 10 min, and 80 µL of the supernatant was collected and diluted with 80 μL of ultrapure water. After well mixing, 2 μL of the dilution was collected for liquid chromatography-mass spectrometry analysis, and pharmacokinetic parameters were calculated."}, "[2]": {"assay": "In vitro liver microsomal stability", "conditions": "human liver microsomes, NADPH, 37° C.", "procedure": "A 200-μL final incubation system contained 20 μL of liver microsomes (protein concentration: 5 mg/mL), 20 μL of NADPH+MgCl2, 2 μL of a substrate, and 158 μL of PBS buffer. The proportion of the organic solvent was 1%. The assay was performed in duplicate (0.2 mL each) for each species. A 180-μL mixture of substrate and enzyme was prepared in each tube. After the mixture and NADPH were pre-incubated at 37° C. for 5 min, 20 μL of NADPH+MgCl2 was added and mixed. 50-μL samples were taken at 0, 15 and 60 min, and the reactions were stopped using ice-cold acetonitrile containing an internal standard.\n50-μL incubated samples were taken, and 300 μL of internal standard-containing acetonitrile was added for precipitation. After 5 min of vortexing and shaking, centrifugation (13,000 rpm, 20° C.) was performed for 10 min. 80 μL of the supernatant was added to a 96-well plate and diluted with 80 μL of ultrapure water, and 1 μL of the dilution was injected for LC-MS/MS analysis."}, "[3]": {"conditions": "plasma, IG 10 mg/kg / IV 1 mg/kg study"}}}
{"smiles": "C[C@@H]1COCCN1c1cc(N=S(C)(=O)C2CC2)c2cnn(-c3ccn[nH]3)c2n1", "note": "(single isomer, unassigned)", "values": [{"measurement": "IC50", "setting": "ATR kinase", "result": "< 50", "unit": "nM"}, {"measurement": "IG half-life t1/2", "setting": "[1]; intragastric 10 mg/kg", "result": 3.3, "unit": "h"}, {"measurement": "Area under plasma concentration-time curve AUC0-last", "setting": "[1]; [3]", "result": 10311, "unit": "ng·h/mL"}, {"measurement": "Peak concentration Cmax", "setting": "[1]; [3]", "result": 4633, "unit": "ng/mL"}, {"measurement": "Tissue distribution Vd", "setting": "[1]; IG 10 mg/kg / IV 1 mg/kg study", "result": 1.38, "unit": "L/kg"}, {"measurement": "Absolute bioavailability F", "setting": "[1]; IG 10 mg/kg vs IV 1 mg/kg", "result": 81, "unit": "%"}, {"measurement": "Human liver microsome (Residual % at 60 min)", "setting": "[2]", "result": 94.14, "unit": "%"}]}
